# Results taken from the RepoRT retention time repository (doi:10.1016/j.foodchem.2021.129757).
# Assay: Other, Phenomenex Kinetex PFP, 100 × 4.6 mm, 5 µm, 45 °C, 0.6 mL/min, estimated dead time 1.8 min; A: water + 0.1% trifluoroacetic acid, pH 2; B: methanol; gradient (min/%B) 0/40 20/72 21/40
# Conditions: stereoisomer not certain
smiles,measurement,value
COc1cc(-c2[o+]c3cc(O)cc(O)c3cc2O)ccc1O [Peonidin],LC retention time,13.8 min
